Biological target: Dual specificity tyrosine-phosphorylation-regulated kinase 1A (Homo sapiens, UniProt Q13627)
Conditions: time min <=5

| SMILES | Ka |
| --- | --- |
| CN(c1nccc(-c2cnn3ncccc23)n1)C1CC1 | 6.3 10^6/M/s |
| CNc1nccc(-c2cnn3ncccc23)n1 | 6 10^6/M/s |
| Nc1nccc(-c2cnn3ncccc23)n1 | 7.3 10^6/M/s |
| CN(C)c1ncc(F)c(-c2cnn3ncccc23)n1 | 4.7 10^6/M/s |
| CN(C)c1ncnc(-c2cnn3ncccc23)n1 | 2.9 10^6/M/s |
| CN(C)c1ncc(Cl)c(-c2cnn3ncccc23)n1 | 1.6 10^6/M/s |
| c1cnn2ncc(-c3ccnc(N4CCC45COC5)n3)c2c1 | 3.9 10^6/M/s |
